Values quoted from earlier work in patent US7728132B2, “Compositions for stabilizing chlorinated water to sunlight decomposition, and methods of preparation thereof” (Enviro Tech Chemical Services, Inc., priority 2007, dated 2010).

Details: chlorinated water exposed to strong sunlight; cited from earlier work

Substance: chlorine
- half-life: less than 45 minutes
